{"source": "PubChem BioAssay AID903", "about": "(National Center for Advancing Translational Sciences (NCATS), 2007)", "note": "The list shows a part of the results, in another mix than the full data. Results filed as inconclusive are left out. Calls of active or inactive are those of the source. Calls follow the shape of the dose curve; as a rule, active = well fitted cell-killing curve with a large enough effect; inconclusive = small, poorly fitted or top-dose-only effect; inactive = no such curve, though single readings can be large or run the other way.", "data": [{"test": "qHTS Screen for Compounds that Selectively Target Cancer Cells with p53 Mutations: Cytotoxicity of p53 Null Cells at the Permissive Temperature;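 also: 0% = DMSO only and -100% = full killing by 100 µM tamoxifen; nearly all actives have a fitted effect of over 55% in size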", "conditions": "H1299-neo p53 null cells, ATP luminescence, 24 h, 32C; at 46.1 µM (top of the series)", "text": "NIH Chemical Genomics Center [NCGC] NIH Molecular Libraries Screening Centers Network [MLSCN] MLSCN Grant: 1 X01 MH079844-01 Assay Submitter (PI): Dr. SUN, YI, University of Michigan NCGC Assay Overview: Synthetic Lethal Screen for Compounds to Kill Cancer Cells with p53 Mutation. Tumor suppressor gene p53 serves as a major cellular barrier against tumorigenesis. […] The goal of this screening is to identify small molecule probes that selectively kill cancer cells with mutations in p53. This screening was carried out using two lines of H1299 lung cancer cells. The H1299-p53 A138V line express a temperature sensitive p53 mutant (p53ts) in which the mutant p53 protein (A138V) is in the mutant confirmation when grown at 39C (the nonpermissive temperature) and in the wild type conformation when grown at 32C (the permissive temperature). A H1299-neo line (p53 null) grown at both 39C and 32C were used as counter-screens to filter out false positive associated with temperature shifting. The small molecular compounds that selectively target mutant p53-containing cancer cells were selected as candidate probes for further study. A cytotoxicity assay based on the measurement of ATP contents in cells was used in this screen. Concentration-responses of all the compounds in the library collection were determined in qHTS using the cell lines and temperature conditions as above.\nNCGC Assay Protocol Summary: Both the H1299-p53A138V and H1299-neo cell lines were provided by Dr.Yi Sun, a PI at the University Michigan. The cells were maintained and cultured at 37C. The resuspended frozen cells were used to plate the cells in the 1536-well assay plates at a density of 600 cells per well in 5 ul medium. The assay plates with the cells were incubated at 37C for 16 to 30 hours before the experiments. The library compounds in DMSO solution were added to the cells in assay plates and incubated 24 hours at 39C (for mutant p53 conformation) or 32C (for normal p53 conformation as control). An ATP_lite assay kit (PerkinElmer) was used to determine the cell viability. Tomaxifen (100uM) was used as the positive control for cell killing. Data were normalized to the controls for basal activity (DMSO only) and 100% killing (100uM tamoxifen). AC50 values were determined from concentration-response data modeled with the standard Hill equation. P53 assay protocol: 1. Reagent; 5 uL H1299-p53A138V or H1299-neo cell cells/well 2. Time; overnight; 37C incubation 3. Compounds; 23 nL; 5.9 nM to 46 uM 4. Controls; 23 nL; Tamoxifen 100 uM 5. Time; 24 hr; 32C incubation 6. Reagent; 3 uL; ATP_Lite reagent 7. Time; 20 min; Room Temperature 8. Detection; Luminescence; Viewlux plate reader Keywords: p53, synthetic lethal, cancer, cell viability, cytotoxicity, H1299 cell line, luminescence, MLSMR, MLSCN, NIH Roadmap, qHTS, NCGC", "values": [{"compound": "CP(=O)(Nc1ccc2c(c1)OCCO2)Oc1ccccc1", "note": "(stereo unspecified)", "activity change, negative = cytotoxicity": "inactive: 9.16%"}, {"compound": "CCN(CC)CCCOC(=O)C(O)(c1ccccc1)C1CCCCC1", "note": "(stereo unspecified)", "activity change, negative = cytotoxicity": "inactive: -2.22%"}, {"compound": "COc1ccc(OP(C)(=O)Nc2ccccc2Br)cc1", "note": "(stereo unspecified)", "activity change, negative = cytotoxicity": "inactive: 9.77%"}, {"compound": "Cc1cccc(C)c1OP(C)(=O)Nc1ccc(SC(F)(F)F)cc1", "note": "(stereo unspecified)", "activity change, negative = cytotoxicity": "inactive: 1.45%"}, {"compound": "Cc1cc(C)cc(OP(C)(=O)Nc2ccc(SC(F)(F)F)cc2)c1", "note": "(stereo unspecified)", "activity change, negative = cytotoxicity": "inactive: -3.91%"}, {"compound": "CCOC(=O)c1ccc(NP(C)(=O)Oc2ccc(OC)cc2)cc1", "note": "(stereo unspecified)", "activity change, negative = cytotoxicity": "inactive: -16.3%"}]}]}
